{"source": "patent US8329663B2", "about": "“Compositions and methods for the treatment of chronic infections” (priority 2008, dated 2012)", "origin": "cited, not measured here", "conditions": "second pKa value listed (polyprotic); in water", "data": [{"smiles": "CCOC(=O)[C@H](CCc1ccccc1)N[C@@H](C)C(=O)N1CCC[C@H]1C(=O)O", "note": "[Enalapril]", "values": [{"measurement": "pKa (in H2O)", "result": "3.0, 5.4"}]}]}
